From patent US8350077B2, “Amides of creatine, method of their preparation, and remedy possessing a neuroprotective activity” (VERTEX Closed Joint Stock Company, priority 2008, dated 2013)

Columns and labels:
[1] = Stability of Creatine amides in human blood plasma (RP-HPLC peak areas, 37° C.); conditions: peak area relative to start
Experimental: The detection was carried out on the wave length 220 nm. The samples dosing on the column was carried out by the loop 20 μl.
(§1) For the study of Creatine amides stability, 1 ml of water or blood plasma was added to 200 μl of aqueous solution of starting amide with a concentration of 2÷3 mg/ml then shaken; a probe volume of 200 μl was taken up immediately and analysis of an initial concentration of the Creatine amide was carried out. Further, the solution was placed into a vibro-thermostat at a temperature of 37° C., then aliquote 200 μl was taken up in 0.5, 1, and 3 hours of thermostatics. 20 μl 10% solution of trichloroacetic acid was added to the taken probe, and kept for 15 min at temperature (−)24° C., then centrifuged at 6000×g for 5 minutes for sedimentation of plasma proteins, supernatant was taken up and its analysis was carried out.
(§2) For evaluation of samples' stability, peak areas of a corresponding compound at the beginning of experiment and at selected time intervals were compared (Tables 1, 2).

[2] = Stability of Creatine amides in rat blood plasma (RP-HPLC peak areas, 37° C.); conditions: peak area relative to start
Experimental: Study of the Creatine derivatives stability in aqueous solution, as well as in human and rat blood plasma was carried out by the method of Reversed Phase HPLC using a chromatography system, known as Beckman System Gold™ (USA) in the following configuration: Programmable Solvent Module 126, Manual Injector Rheodyne 7725i, Programmable Detector Module 166, featured with the Beckman System Gold Chromatography Software™. The analysis was carried out on the column Luna 5μ C18(2) 100 Å 150×4.6 mm (Phenomenex, USA) with the precolumn Guard Cartridge C18 at the flow rate 1 ml/min in the linear gradient of acetonitrile: for analogue from the Example 1 from 5 to 25% of acetonitrile in 20 min (A: 0.1% of […]—H2O, B: 0.1% of H3PO4-acetonitrile), in case of substance from the Examples 2÷8: from 3 to 23% of acetonitrile in 20 minutes. The detection was carried out on the wave length 220 nm. The samples dosing on the column was carried out by the loop 20 μl.
as §1, §2

Substance: Creatinyl-Glycine Ethylamide Acetate [Example 6]
- Stability in human blood plasma, 0 h [1]: 100%
- Stability in human blood plasma, 0.5 h [1]: 97%
- Stability in human blood plasma, 1 h [1]: 95%
- Stability in human blood plasma, 3 h [1]: 95%
- Stability in a rat blood plasma, 0 h [2]: 100%
- Stability in a rat blood plasma, 0.5 h [2]: 97%
- Stability in a rat blood plasma, 1 h [2]: 97%
- Stability in a rat blood plasma, 3 h [2]: 95%

Substance: Creatinyl-Tyrosine Amide Succinate [Example 5]
- Stability in human blood plasma, 0 h [1]: 100%
- Stability in human blood plasma, 0.5 h [1]: 98%
- Stability in human blood plasma, 1 h [1]: 97%
- Stability in human blood plasma, 3 h [1]: 93%
- Stability in a rat blood plasma, 0 h [2]: 100%
- Stability in a rat blood plasma, 0.5 h [2]: 98%
- Stability in a rat blood plasma, 1 h [2]: 97%
- Stability in a rat blood plasma, 3 h [2]: 93%
